Literature values in US20080249317A1, “Novel amorphous form of carvedilol phosphate and processes for the preparation thereof” (APOTEX INC., priority 2007, published 2008).

Conditions: as taught in WO 2004/002419, US 2005/0169994 and US 2006/0182804; cited from earlier work

In the case of “carvedilol phosphate [crystalline carvedilol phosphate]”, the solubility characteristics is listed as “purportedly superior”.
